Results on one compound are retold here after US20250352600A1, “DIETARY SUPPLEMENTS FOR BRAIN HEALTH” (Melaleuca, Inc., priority 2024, published 2025).

Test [1] is described as follows: Low-Caffeine User Clinical Study, Profile of Mood States (POMS) survey. In kind it is in vivo, human. The conditions noted are these: total mood disturbance, low-caffeine users, n = 30, Pre. The text has this:
This study included subjective (POMS and product questions) and objective (CNSVS) tests. […] Composition A; and Composition B. The Profile of Mood States (POMS) survey measured several mood domains including fatigue and vigor (energy) together with tension, anger, depression, self-esteem, and confusion to aggregates as total mood disturbance (TMD). Thirty out of thirty-two participants completed the trial. […] There were 13 male and 17 female participants with an average age of 37.1 years.

Test [2] in a line: Moderate-Caffeine User Follow-Up, Profile of Mood States (POMS) survey. The conditions noted are these: moderate-caffeine users. It counts as in vivo, human. An excerpt: The study included subjective tests (POMS and product questions) only. […] Composition A; and Composition B. Thirteen participants completed the trial (1 completed ¾ arms due to scheduling interference). […] There were 7 male and 6 female participants with an average age of 39.5 years.

On to `Cn1c(=O)c2c(ncn2C)n(C)c1=O` [Caffeine, caffeine], for which the TMD in test [1] is −2.86. The Anger in test [2] (n = 12-13, Post) is on record as 1.33 ± 3.45; in test [2] (n = 12-13, Pre) it was 1.42 ± 2.23.
